The source made the active and inactive calls. No cut-off for these calls is given here.
Target: Mitogen-activated protein kinase 10 (Homo sapiens, UniProt P53779)
Assay: Inhibition of JNK3alpha1 (unknown origin) up to 10 uM after 1 hr by homogeneous time-resolved fluorescence assay

Amino acid sequences for entries named in this document (tags omitted). A change or cut given only in a name is not applied to a line headed by its entry.
UniProt P53779: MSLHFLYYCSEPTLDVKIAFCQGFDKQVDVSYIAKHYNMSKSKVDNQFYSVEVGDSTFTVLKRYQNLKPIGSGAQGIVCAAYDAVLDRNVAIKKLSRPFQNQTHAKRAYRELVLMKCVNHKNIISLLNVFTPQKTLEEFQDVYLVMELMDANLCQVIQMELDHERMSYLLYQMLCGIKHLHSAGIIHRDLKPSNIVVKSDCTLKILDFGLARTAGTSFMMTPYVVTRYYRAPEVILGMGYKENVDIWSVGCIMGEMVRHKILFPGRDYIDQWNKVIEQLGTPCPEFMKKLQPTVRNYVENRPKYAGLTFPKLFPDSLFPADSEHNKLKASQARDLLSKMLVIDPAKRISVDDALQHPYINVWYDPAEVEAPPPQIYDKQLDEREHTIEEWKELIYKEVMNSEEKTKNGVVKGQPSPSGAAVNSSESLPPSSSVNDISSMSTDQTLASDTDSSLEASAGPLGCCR

SMILES	inhibition
Cc1ccc(NC(=O)c2cccc(-n3cc(NC(=O)NC4CCCC4)cn3)c2)cn1	inactive
Cc1ccc(NC(=O)c2cccc(-n3cc(NC(=O)N4CCc5ccccc54)cn3)c2)cn1	inactive
Cc1ccc(NC(=O)c2cccc(-n3cc(NC(=O)N(CCO)c4ccccc4Cl)cn3)c2)cn1	inactive
Cc1cccc(NC(=O)c2cccc(-n3cc(NC(=O)Nc4ccccc4Cl)cn3)c2)n1	inactive

— ChEMBL document CHEMBL3352539 (J Med Chem, 2014)
